Key:
[1] = target: recombinant human interferon alfa-2b (human) (UniProt P01563); test: SPR; IFN-α immobilised by amine coupling; S100 proteins as analyte; 25 °C; 10 mM HEPES, 150 mM NaCl, 0.01% TWEEN 20, pH 7.4
[2] = target: recombinant human S100A6 (human) (UniProt P06703); test: SPR; estimate from the SPR data for 0.5 µM S100 analyte on immobilised IFN-β, 1 mM CaCl2; dimer to monomers, Ca^2+-loaded S100
[3] = target: recombinant human interferon beta-1a (human) (UniProt P01574); test: SPR; IFN-β immobilised on ProteOn GLH chip by amine coupling; Ca^2+-loaded S100 as analyte (0.25–5 µM S100A1, 0.5–5 µM S100A4/A6, 5 µM other S100); 25 °C; 10 mM HEPES, 150 mM NaCl, 0.01% TWEEN 20, pH 7.4, 1 mM CaCl2; heterogeneous ligand model

Kd [1]: > 10000 nM | Kd [2]: < 500 nM | Kd1 (KD, ligand population L1) [3]: 82 nM | Kd2 (KD, ligand population L2) [3]: 267 nM | kd1 (koff, ligand population L1) [3]: 0.00021 s⁻¹ | kd2 (koff, ligand population L2) [3]: 0.00407 s⁻¹
Substance: recombinant human S100A6 (from UniProt P06703 1-90) (natural protein)

— PMC7764042
